From the kinase profiling compilation of Christmann-Franck et al. (2016)

Chains of the proteins cited; added tags and fusions are not shown. Lines headed by an entry give the natural chain unless they say otherwise; changes in a name come on top.
UniProt O96017, whole entry, looked up: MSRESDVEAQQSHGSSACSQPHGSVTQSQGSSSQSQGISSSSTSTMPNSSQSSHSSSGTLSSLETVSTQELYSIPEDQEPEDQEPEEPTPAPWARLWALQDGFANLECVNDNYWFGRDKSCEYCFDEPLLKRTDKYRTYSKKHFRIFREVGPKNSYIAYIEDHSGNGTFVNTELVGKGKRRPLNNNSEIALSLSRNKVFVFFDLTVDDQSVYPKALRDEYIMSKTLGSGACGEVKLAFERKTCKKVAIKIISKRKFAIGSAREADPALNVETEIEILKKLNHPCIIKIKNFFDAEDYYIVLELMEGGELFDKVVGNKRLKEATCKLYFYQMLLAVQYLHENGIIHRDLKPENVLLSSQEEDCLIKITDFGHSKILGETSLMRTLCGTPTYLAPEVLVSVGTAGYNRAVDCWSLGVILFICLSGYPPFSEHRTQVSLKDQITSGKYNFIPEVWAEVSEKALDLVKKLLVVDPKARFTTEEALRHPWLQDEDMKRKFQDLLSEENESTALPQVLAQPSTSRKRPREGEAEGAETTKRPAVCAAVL
UniProt P49674: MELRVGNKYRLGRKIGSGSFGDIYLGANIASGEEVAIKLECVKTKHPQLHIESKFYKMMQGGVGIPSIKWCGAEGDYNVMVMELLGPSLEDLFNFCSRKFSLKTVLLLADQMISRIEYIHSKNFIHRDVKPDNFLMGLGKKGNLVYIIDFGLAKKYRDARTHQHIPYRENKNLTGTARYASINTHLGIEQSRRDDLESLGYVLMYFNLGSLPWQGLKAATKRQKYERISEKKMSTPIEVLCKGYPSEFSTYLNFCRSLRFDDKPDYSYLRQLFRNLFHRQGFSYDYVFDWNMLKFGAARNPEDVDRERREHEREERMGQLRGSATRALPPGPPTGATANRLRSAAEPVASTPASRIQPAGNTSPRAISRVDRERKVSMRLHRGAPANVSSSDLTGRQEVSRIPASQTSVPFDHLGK
UniProt Q9UIK4: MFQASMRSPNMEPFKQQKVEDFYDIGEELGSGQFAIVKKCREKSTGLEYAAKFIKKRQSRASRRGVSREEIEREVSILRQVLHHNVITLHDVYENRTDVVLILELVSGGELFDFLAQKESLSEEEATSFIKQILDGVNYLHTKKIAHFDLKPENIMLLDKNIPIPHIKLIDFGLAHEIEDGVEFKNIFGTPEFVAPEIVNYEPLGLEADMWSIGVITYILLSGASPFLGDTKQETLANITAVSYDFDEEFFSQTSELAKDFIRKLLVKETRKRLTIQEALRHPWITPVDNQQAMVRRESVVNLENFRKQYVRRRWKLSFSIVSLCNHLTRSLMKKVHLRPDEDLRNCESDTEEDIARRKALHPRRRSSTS
UniProt P29322: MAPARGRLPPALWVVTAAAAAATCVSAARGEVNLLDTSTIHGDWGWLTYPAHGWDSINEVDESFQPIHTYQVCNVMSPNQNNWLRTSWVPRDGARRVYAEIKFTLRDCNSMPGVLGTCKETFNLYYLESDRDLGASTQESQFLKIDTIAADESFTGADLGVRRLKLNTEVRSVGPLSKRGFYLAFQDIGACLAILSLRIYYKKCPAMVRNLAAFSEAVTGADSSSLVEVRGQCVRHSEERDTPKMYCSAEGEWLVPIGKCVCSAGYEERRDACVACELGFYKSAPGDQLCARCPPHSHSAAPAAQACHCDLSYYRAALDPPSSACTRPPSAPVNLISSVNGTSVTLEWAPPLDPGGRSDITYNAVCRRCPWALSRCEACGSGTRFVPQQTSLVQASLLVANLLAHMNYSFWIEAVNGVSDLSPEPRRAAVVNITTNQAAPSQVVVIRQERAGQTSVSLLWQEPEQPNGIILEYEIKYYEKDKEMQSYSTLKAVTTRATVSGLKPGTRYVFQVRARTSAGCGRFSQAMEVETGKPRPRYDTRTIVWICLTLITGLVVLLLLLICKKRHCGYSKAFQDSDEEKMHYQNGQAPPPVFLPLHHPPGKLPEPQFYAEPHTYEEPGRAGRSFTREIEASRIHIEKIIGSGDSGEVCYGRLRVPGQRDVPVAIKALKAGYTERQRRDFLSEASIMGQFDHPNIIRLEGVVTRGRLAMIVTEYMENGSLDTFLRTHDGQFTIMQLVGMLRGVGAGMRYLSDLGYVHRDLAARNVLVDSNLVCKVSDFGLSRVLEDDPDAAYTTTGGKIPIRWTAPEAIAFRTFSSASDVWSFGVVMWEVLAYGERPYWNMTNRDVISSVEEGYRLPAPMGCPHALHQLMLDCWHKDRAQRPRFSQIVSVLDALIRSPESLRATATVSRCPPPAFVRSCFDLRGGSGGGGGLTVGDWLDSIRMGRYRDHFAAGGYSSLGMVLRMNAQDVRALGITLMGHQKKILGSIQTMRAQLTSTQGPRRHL
UniProt P54753: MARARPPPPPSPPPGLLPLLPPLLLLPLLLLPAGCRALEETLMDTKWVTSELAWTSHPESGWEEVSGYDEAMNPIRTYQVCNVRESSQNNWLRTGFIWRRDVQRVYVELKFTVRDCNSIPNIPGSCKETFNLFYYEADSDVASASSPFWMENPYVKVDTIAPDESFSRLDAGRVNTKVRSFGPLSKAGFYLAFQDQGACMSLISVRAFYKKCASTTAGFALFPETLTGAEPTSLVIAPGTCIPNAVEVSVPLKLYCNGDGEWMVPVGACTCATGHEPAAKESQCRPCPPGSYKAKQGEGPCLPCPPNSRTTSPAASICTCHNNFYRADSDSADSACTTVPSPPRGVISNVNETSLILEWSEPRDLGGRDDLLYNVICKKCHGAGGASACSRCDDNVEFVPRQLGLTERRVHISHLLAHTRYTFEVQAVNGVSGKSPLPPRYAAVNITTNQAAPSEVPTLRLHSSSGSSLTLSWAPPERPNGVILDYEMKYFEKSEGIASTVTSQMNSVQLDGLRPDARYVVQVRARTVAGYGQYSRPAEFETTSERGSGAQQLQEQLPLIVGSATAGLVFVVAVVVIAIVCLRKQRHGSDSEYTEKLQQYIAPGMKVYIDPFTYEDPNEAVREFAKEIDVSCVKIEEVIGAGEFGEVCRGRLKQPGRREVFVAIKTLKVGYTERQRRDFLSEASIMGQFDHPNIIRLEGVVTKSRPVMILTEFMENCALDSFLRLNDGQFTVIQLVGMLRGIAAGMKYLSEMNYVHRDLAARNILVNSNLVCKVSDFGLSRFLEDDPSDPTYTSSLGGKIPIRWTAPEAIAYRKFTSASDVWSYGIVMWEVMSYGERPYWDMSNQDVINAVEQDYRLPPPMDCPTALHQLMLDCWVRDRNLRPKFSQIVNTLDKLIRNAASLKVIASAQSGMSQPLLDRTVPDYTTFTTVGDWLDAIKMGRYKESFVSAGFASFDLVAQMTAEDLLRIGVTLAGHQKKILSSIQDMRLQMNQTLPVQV
UniProt P49840: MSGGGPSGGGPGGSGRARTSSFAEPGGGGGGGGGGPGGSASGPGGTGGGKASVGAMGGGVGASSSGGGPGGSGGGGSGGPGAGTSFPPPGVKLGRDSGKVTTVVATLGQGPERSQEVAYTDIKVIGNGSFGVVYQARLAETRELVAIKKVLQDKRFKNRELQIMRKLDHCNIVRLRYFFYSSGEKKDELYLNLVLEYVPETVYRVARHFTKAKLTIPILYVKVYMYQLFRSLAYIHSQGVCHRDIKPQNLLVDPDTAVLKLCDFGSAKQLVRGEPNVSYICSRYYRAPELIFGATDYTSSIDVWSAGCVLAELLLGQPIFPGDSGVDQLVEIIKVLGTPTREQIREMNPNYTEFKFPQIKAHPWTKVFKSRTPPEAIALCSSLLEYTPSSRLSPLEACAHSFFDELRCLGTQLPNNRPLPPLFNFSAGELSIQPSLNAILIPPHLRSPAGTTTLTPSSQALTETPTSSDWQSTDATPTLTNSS
UniProt Q8IW41: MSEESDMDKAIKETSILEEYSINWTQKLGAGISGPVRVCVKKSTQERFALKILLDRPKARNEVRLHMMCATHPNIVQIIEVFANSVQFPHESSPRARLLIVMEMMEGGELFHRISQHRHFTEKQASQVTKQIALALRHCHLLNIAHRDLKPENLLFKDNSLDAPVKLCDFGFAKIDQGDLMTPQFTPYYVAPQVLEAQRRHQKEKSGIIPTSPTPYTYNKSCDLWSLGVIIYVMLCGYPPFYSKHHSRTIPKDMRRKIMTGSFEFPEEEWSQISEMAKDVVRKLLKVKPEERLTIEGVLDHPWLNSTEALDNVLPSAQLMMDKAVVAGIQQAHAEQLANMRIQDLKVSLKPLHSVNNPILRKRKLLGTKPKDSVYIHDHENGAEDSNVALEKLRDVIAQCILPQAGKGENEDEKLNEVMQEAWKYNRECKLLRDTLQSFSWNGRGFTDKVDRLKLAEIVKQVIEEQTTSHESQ
UniProt Q16620, whole entry, looked up: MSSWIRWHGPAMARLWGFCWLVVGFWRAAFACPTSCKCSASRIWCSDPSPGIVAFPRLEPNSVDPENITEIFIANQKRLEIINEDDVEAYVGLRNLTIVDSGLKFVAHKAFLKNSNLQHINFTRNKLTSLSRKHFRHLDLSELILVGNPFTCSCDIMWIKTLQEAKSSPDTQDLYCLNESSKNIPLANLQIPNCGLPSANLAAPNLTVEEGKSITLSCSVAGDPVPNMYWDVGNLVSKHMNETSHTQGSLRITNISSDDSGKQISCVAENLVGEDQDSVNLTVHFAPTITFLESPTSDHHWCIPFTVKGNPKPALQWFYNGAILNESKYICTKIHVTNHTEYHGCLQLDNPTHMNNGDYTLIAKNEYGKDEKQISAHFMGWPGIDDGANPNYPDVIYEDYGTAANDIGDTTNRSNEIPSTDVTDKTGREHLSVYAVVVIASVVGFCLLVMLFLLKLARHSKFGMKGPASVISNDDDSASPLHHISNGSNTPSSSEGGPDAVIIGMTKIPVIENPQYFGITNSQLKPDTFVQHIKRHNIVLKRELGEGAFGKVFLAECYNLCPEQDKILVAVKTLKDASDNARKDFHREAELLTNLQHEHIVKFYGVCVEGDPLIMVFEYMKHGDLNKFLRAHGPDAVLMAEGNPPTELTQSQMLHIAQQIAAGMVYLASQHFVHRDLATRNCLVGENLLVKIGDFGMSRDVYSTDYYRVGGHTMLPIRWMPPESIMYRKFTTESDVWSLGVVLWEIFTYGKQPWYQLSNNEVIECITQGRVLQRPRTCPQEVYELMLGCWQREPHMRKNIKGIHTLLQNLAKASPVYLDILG
UniProt Q9NYY3: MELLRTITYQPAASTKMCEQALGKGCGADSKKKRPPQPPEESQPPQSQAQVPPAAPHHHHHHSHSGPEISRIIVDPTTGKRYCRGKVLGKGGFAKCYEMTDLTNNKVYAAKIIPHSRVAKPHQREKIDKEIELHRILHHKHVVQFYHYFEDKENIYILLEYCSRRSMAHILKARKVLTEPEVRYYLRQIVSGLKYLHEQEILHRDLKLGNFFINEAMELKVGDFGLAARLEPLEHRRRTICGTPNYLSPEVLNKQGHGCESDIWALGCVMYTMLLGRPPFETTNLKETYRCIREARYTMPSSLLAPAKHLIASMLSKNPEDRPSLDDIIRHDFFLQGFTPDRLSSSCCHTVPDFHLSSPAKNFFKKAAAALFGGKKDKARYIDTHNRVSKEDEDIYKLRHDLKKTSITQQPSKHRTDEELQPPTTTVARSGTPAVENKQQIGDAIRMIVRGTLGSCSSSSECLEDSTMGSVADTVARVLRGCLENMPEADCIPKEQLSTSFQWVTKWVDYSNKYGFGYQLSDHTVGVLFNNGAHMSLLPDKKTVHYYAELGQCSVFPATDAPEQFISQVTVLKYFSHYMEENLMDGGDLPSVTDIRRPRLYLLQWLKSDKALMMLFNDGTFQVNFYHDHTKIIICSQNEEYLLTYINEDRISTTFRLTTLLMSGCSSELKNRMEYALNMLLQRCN
UniProt P36897: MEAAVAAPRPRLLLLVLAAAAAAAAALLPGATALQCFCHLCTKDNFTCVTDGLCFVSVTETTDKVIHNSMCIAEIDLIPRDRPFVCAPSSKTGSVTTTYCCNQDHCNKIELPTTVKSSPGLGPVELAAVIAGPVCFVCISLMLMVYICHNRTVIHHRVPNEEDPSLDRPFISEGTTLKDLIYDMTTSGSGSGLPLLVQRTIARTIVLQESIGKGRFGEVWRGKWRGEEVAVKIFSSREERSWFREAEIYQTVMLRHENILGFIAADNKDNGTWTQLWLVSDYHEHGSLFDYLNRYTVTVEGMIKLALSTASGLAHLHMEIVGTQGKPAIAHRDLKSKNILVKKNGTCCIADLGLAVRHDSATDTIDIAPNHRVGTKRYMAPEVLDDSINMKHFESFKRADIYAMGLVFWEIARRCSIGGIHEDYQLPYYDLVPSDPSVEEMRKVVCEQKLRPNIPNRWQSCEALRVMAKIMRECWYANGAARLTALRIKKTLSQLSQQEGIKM

How the values were obtained:
Experiment in all cases: radiometric filter-binding kinase assay, Kinase HotSpot
Settings in all cases: compound 0.5 µM; ATP 10 µM
[1] = target: ADRBK2 (human) (UniProt P35626)
[2] = target: AXL (human) (UniProt P30530)
[3] = target: CAMK2A (human) (UniProt Q9UQM7)
[4] = target: CAMK2D (human) (UniProt Q13557)
[5] = target: CHEK2 (human) (UniProt O96017)
[6] = target: CLK4 (human) (UniProt Q9HAZ1)
[7] = target: CSNK1E (human) (UniProt P49674)
[8] = target: DAPK2 (human) (UniProt Q9UIK4)
[9] = target: DCLK2 (human) (UniProt Q8N568)
[10] = target: DDR2 (human) (UniProt Q16832)
[11] = target: DMPK (human) (UniProt Q09013)
[12] = target: DSTYK (human) (UniProt Q6XUX3)
[13] = target: DYRK2 (human) (UniProt Q92630)
[14] = target: DYRK3 (human) (UniProt O43781)
[15] = target: EPHA2 (human) (UniProt P29317)
[16] = target: EPHA5 (human) (UniProt P54756)
[17] = target: EPHA7 (human) (UniProt Q15375)
[18] = target: EPHA8 (human) (UniProt P29322)
[19] = target: EPHB1 (human) (UniProt P54762)
[20] = target: EPHB2 (human) (UniProt P29323)
[21] = target: EPHB3 (human) (UniProt P54753)
[22] = target: ERBB2 (human) (UniProt P04626)
[23] = target: GSK3A (human) (UniProt P49840)
[24] = target: GSK3B (human) (UniProt P49841)
[25] = target: KIT (human) (UniProt P10721)
[26] = target: LIMK1 (human) (UniProt P53667)
[27] = target: MAP4K5 (human) (UniProt Q9Y4K4)
[28] = target: MAPK11 (human) (UniProt Q15759)
[29] = target: MAPKAPK5 (human) (UniProt Q8IW41)
[30] = target: MARK3 (human) (UniProt P27448)
[31] = target: NEK1 (human) (UniProt Q96PY6)
[32] = target: NTRK1 (human) (UniProt P04629)
[33] = target: NTRK2 (human) (UniProt Q16620)
[34] = target: PLK2 (human) (UniProt Q9NYY3)
[35] = target: PRKCE (human) (UniProt Q02156)
[36] = target: PRKCI (human) (UniProt P41743)
[37] = target: PRKD2 (human) (UniProt Q9BZL6)
[38] = target: PRKX (human) (UniProt P51817)
[39] = target: SRPK1 (human) (UniProt Q96SB4)
[40] = target: TAOK3 (human) (UniProt Q9H2K8)
[41] = target: TGFBR1 (human) (UniProt P36897)
[42] = target: WNK3 (human) (UniProt Q9BYP7)

**Q.** Which residual activity [1] does the source give for `O=C1c2ccccc2-[n+]2ccc3c([nH]c4ccccc43)c21` here?
**A.** Its residual activity is 99.7%.

**Q.** And the residual activity [2]?
**A.** Its residual activity is 81.1%.

**Q.** What about the residual activity [3] of the same molecule?
**A.** Its residual activity is 114%.

**Q.** And the residual activity [4]?
**A.** Its residual activity is 98.5%.

**Q.** What about the residual activity [5] of the same molecule?
**A.** The residual activity was 91.8%.

**Q.** What about the residual activity [6] of the same molecule?
**A.** The residual activity was 90.2%.

**Q.** And the residual activity [7]?
**A.** Its residual activity is 91.1%.

**Q.** And the residual activity [8]?
**A.** The residual activity was 96.7%.

**Q.** What about the residual activity [9] of the same molecule?
**A.** Its residual activity is 93.2%.

**Q.** What about the residual activity [10] of the same molecule?
**A.** The residual activity was 95.4%.

**Q.** What about the residual activity [11] of the same molecule?
**A.** The residual activity was 126%.

**Q.** And the residual activity [12]?
**A.** Its residual activity is 77.3%.

**Q.** And the residual activity [13]?
**A.** Its residual activity is 107%.

**Q.** And the residual activity [14]?
**A.** The residual activity was 99%.

**Q.** And the residual activity [15]?
**A.** Its residual activity is 103%.

**Q.** And the residual activity [16]?
**A.** The residual activity was 106%.

**Q.** And the residual activity [17]?
**A.** Its residual activity is 99.1%.

**Q.** And the residual activity [18]?
**A.** The residual activity was 98.8%.

**Q.** What about the residual activity [19] of the same molecule?
**A.** The residual activity was 106%.

**Q.** And the residual activity [20]?
**A.** The residual activity was 85.4%.

**Q.** What about the residual activity [21] of the same molecule?
**A.** Its residual activity is 90.9%.

**Q.** And the residual activity [22]?
**A.** The residual activity was 94.2%.

**Q.** And the residual activity [23]?
**A.** The residual activity was 99.7%.

**Q.** What about the residual activity [24] of the same molecule?
**A.** Its residual activity is 112%.

**Q.** And the residual activity [25]?
**A.** Its residual activity is 86.8%.

**Q.** What about the residual activity [26] of the same molecule?
**A.** Its residual activity is 85.6%.

**Q.** And the residual activity [27]?
**A.** The residual activity was 99.5%.

**Q.** And the residual activity [28]?
**A.** Its residual activity is 100%.

**Q.** What about the residual activity [29] of the same molecule?
**A.** The residual activity was 90%.

**Q.** What about the residual activity [30] of the same molecule?
**A.** The residual activity was 96.4%.

**Q.** And the residual activity [31]?
**A.** Its residual activity is 79.8%.

**Q.** What about the residual activity [32] of the same molecule?
**A.** The residual activity was 77.4%.

**Q.** And the residual activity [33]?
**A.** Its residual activity is 74.4%.

**Q.** What about the residual activity [34] of the same molecule?
**A.** The residual activity was 79.9%.

**Q.** And the residual activity [35]?
**A.** Its residual activity is 93.7%.

**Q.** And the residual activity [36]?
**A.** Its residual activity is 88.5%.

**Q.** And the residual activity [37]?
**A.** The residual activity was 103%.

**Q.** What about the residual activity [38] of the same molecule?
**A.** The residual activity was 101%.

**Q.** And the residual activity [39]?
**A.** The residual activity was 80.6%.

**Q.** What about the residual activity [40] of the same molecule?
**A.** Its residual activity is 100%.

**Q.** What about the residual activity [41] of the same molecule?
**A.** The residual activity was 101%.

**Q.** What about the residual activity [42] of the same molecule?
**A.** The residual activity was 102%.

**Q.** What does the source list for `COc1cc(OC)c(/C=C2\C(=O)Nc3ccccc32)c(OC)c1`?
**A.** residual activity [1]: 103%; residual activity [2]: 90.6%; residual activity [3]: 97%; residual activity [4]: 95.7%; residual activity [5]: 98.1%; residual activity [6]: 92.5%; residual activity [7]: 48.3%; residual activity [8]: 97.4%; residual activity [9]: 97.6%; residual activity [10]: 98.3%; residual activity [11]: 104%; residual activity [12]: 97.7%; residual activity [13]: 98%; residual activity [14]: 109%; residual activity [15]: 102%; residual activity [16]: 113%; residual activity [17]: 101%; residual activity [18]: 96.8%; residual activity [19]: 102%; residual activity [20]: 86.2%; residual activity [21]: 89.8%; residual activity [22]: 94.6%; residual activity [23]: 144%; residual activity [24]: 94.3%; residual activity [25]: 101%; residual activity [26]: 83.8%; residual activity [27]: 104%; residual activity [28]: 98.4%; residual activity [29]: 104%; residual activity [30]: 105%; residual activity [31]: 102%; residual activity [32]: 93.2%; residual activity [33]: 105%; residual activity [34]: 110%; residual activity [35]: 95.5%; residual activity [36]: 97.8%; residual activity [37]: 92.4%; residual activity [38]: 103%; residual activity [39]: 102%; residual activity [40]: 98.1%; residual activity [41]: 103%; residual activity [42]: 97.6%
